This is a selection; strong and weak results do not stand in their true shares. Some tests of the compounds listed are not included; inactive here does not mean inactive elsewhere. The source made the active and inactive calls. Cut-off read from the data, not from the text of the source: active = inhibition above about 58%; inactive = the rest, inconclusive results apart; tested in S. cerevisiae.
Experiment: growth inhibition of WT strain, primary screen, mitochondrial fusion inhibitor project, WT and mutant strains, chemical genetic (AID 1362)
Details: mitochondrial fusion phenotypic screen, at 10 µM, stronger effect = higher value

Structure (SMILES) | inhibition
CC(C)N1C(=O)CC2(CCN(CCOC(=O)C(O)(c3ccccc3)c3ccccc3)CC2)C1=O | inactive: 1.17%
O=C(NCC1(N2CCCCC2)CCCCC1)c1cc([N+](=O)[O-])ccc1Cl | inactive: 13.4%
C=CCN1CCN(CCOC(=O)C(O)(c2ccccc2)c2ccccc2)CC1 | inactive: -22.2%
CCN1CCCC(OC(=O)C2(O)c3ccccc3C=Cc3ccccc32)C1 (centres undefined) | inactive: -6.04%
CN(C)C1CCCC1OC(=O)C(O)(c1ccccc1)c1ccccc1 (centres undefined) | inactive: 1.05%
Cc1ccccc1C(=O)NCC1(N2CCCCC2)CCCCC1 | inactive: 1.06%
COc1cccc(C(=O)NCC2(N3CCCCC3)CCCCC2)c1 | inactive: -2.45%
CN(C)c1cccc(C(=O)NCC2(N(C)C)CCCCC2)c1 | inactive: -11.6%
O=C(OC1CN2CCC1CC2)C(CO)(c1ccccc1)c1ccccc1 (centres undefined) | inactive: 0.68%

From PubChem BioAssay AID1362 (SRMLSC, 2008)
